According to PubChem BioAssay AID463215 (Sanford-Burnham Center for Chemical Genomics, 2010):
The list shows a part of the results, in another mix than the full data. Activity calls are given as the source filed them.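 The calls were made as follows: active = inhibition of yeast growth at or above a set limit in either of two replicates at 10 µM; inactive = the rest.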

Experiment: growth inhibitors of wild-type TIM10 yeast, confirmation, counter-screen for tim10-1 synthetic lethality project, single concentration, luminescence, S. cerevisiae (AID 463215);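 also: isogenic wild-type TIM10 control yeast grown in succinate dextrose medium; this counterscreen used the strain with wild-type TIM10; 0% = yeast with DMSO and 100% = medium wells lacking yeast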
Conditions: S. cerevisiae tim10 strain growth, BacTiter-Glo luminescence, 24 h; at 10 µM; stronger effect = higher value

Question: With `CCOC(=O)N1CCC(Nc2ccc(F)cc2)CC1` as the compound, how does the inhibition read?
Answer: inactive: 2.25%
